Source: patent publication US20110091467A1 (CENTRE FOR ADDICTION AND MENTAL HEALTH, published 2011)

Protein sequences, listed by entry. Tags and fused reporters are not part of them.
UniProt P61169, whole entry: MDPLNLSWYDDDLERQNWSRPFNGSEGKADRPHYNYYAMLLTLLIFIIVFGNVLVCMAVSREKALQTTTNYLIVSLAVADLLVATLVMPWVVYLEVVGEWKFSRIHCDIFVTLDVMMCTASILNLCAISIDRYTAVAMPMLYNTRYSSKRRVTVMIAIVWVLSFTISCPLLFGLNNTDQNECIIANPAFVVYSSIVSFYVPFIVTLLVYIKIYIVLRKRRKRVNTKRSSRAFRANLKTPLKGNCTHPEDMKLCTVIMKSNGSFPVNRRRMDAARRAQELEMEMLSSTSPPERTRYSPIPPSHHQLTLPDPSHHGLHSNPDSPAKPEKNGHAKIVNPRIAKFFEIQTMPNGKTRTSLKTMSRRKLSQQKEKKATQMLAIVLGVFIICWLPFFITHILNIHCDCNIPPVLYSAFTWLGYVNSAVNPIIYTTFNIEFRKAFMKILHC
UniProt P23977, whole entry: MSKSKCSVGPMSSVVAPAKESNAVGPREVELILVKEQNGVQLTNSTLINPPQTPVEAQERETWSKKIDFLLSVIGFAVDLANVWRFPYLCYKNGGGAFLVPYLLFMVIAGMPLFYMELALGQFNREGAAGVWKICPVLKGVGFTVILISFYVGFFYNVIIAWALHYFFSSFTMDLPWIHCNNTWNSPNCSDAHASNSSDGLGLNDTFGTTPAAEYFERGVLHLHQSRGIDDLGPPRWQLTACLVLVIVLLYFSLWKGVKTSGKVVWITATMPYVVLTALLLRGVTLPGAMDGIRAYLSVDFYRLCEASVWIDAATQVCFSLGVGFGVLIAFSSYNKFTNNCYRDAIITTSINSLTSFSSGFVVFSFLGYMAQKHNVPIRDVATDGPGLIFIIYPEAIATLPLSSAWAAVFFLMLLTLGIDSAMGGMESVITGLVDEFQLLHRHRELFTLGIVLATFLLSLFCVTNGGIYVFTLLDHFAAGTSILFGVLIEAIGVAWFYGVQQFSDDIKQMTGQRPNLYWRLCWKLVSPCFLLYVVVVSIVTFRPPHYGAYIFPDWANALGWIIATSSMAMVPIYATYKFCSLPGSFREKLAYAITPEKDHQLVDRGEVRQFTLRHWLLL

B1: GST fused DAT[NT3] (K35-D68) (other)
chain: MSPILGYWKIKGLVQPTRLLLEYLEEKYEEHLYERDEGDKWRNKKFELGLEFPNLPYYIDGDVKLTQSMAIIRYIADKHNMLGGCPKERAEISMLEGAVLDIRYGVSRIAYSKDFETLKVDFLSKLPEMLKMFEDRLCHKTYLNGDHVTHPDFMLYDALDVVLYMDPMCLDAFPKLVCFKKRIEAIPQIDKYLKSSKYIAWPLQGWQATFGGGDHPPKKEQNGVQLTSSTLTNPRQSPVEAQDRETWGKKID
notes: also called GST-DAT[NT3]
B2: GST fused to D2[IL3-2-1]: E242-P271 (other)
chain: MSPILGYWKIKGLVQPTRLLLEYLEEKYEEHLYERDEGDKWRNKKFELGLEFPNLPYYIDGDVKLTQSMAIIRYIADKHNMLGGCPKERAEISMLEGAVLDIRYGVSRIAYSKDFETLKVDFLSKLPEMLKMFEDRLCHKTYLNGDHVTHPDFMLYDALDVVLYMDPMCLDAFPKLVCFKKRIEAIPQIDKYLKSSKYIAWPLQGWQATFGGGDHPPKEAARRAQELEMEMLSSTSPPERTRYSPIPP
notes: also called GST-D2[IL3-2-1]
B3: GST fused to D2[IL3-2-2]: S259-I311 (other)
chain: MSPILGYWKIKGLVQPTRLLLEYLEEKYEEHLYERDEGDKWRNKKFELGLEFPNLPYYIDGDVKLTQSMAIIRYIADKHNMLGGCPKERAEISMLEGAVLDIRYGVSRIAYSKDFETLKVDFLSKLPEMLKMFEDRLCHKTYLNGDHVTHPDFMLYDALDVVLYMDPMCLDAFPKLVCFKKRIEAIPQIDKYLKSSKYIAWPLQGWQATFGGGDHPPKSPPERTRYSPIPPSHHQLTLPDPSHHGLHSTPDSPAKPEKNGHAKDHPKIAKI
notes: also called GST-D2[IL3-2-2]
B4: GST fused to D2[IL3-2-4] (E297-I311) (other)
chain: MSPILGYWKIKGLVQPTRLLLEYLEEKYEEHLYERDEGDKWRNKKFELGLEFPNLPYYIDGDVKLTQSMAIIRYIADKHNMLGGCPKERAEISMLEGAVLDIRYGVSRIAYSKDFETLKVDFLSKLPEMLKMFEDRLCHKTYLNGDHVTHPDFMLYDALDVVLYMDPMCLDAFPKLVCFKKRIEAIPQIDKYLKSSKYIAWPLQGWQATFGGGDHPPKEKNGHAKDHPKIAKI
notes: also called GST-D2[IL3-2-4]
B5: GST fused to DAT[CT]: L583-V620 (other)
chain: MSPILGYWKIKGLVQPTRLLLEYLEEKYEEHLYERDEGDKWRNKKFELGLEFPNLPYYIDGDVKLTQSMAIIRYIADKHNMLGGCPKERAEISMLEGAVLDIRYGVSRIAYSKDFETLKVDFLSKLPEMLKMFEDRLCHKTYLNGDHVTHPDFMLYDALDVVLYMDPMCLDAFPKLVCFKKRIEAIPQIDKYLKSSKYIAWPLQGWQATFGGGDHPPKLPGSFREKLAYAIAPEKDRELVDRGEVRQFTLRHWLKV
notes: also called GST fused DAT[CT]
B6: GST fused DAT[NT2] (A16-T43) (other)
chain: MSPILGYWKIKGLVQPTRLLLEYLEEKYEEHLYERDEGDKWRNKKFELGLEFPNLPYYIDGDVKLTQSMAIIRYIADKHNMLGGCPKERAEISMLEGAVLDIRYGVSRIAYSKDFETLKVDFLSKLPEMLKMFEDRLCHKTYLNGDHVTHPDFMLYDALDVVLYMDPMCLDAFPKLVCFKKRIEAIPQIDKYLKSSKYIAWPLQGWQATFGGGDHPPKAPAKEPNAVGPKEVELILVKEQNGVQLT
notes: also called GST-DAT[NT2]

Experiments:
[1] = molecular target: T1, dopamine D2 receptor from solubilized rat striatal tissue (rat, UniProt P61169); assay: GST affinity purification (pull-down) from solubilized rat striatum, Western blot for D2 receptor
T1 construct: mature; Endogenous protein in a detergent extract of rat striatum, detected by Western blot with anti-D2; also called D2 receptors

[2] = molecular target: T2, dopamine transporter (DAT) from solubilized rat striatal tissue (rat, UniProt P23977); assay: GST affinity purification (pull-down), Western blot for DAT
T2 construct: mature; Endogenous protein in a detergent extract of rat striatum, detected by Western blot with anti-DAT; also called solubilized DAT

[3] = molecular target: T1, dopamine D2 receptor from solubilized …; assay: GST affinity purification (pull-down), Western blot for D2 receptor

Binder | binding result [1] | binding result [2] | further results
B1 | no binding |  | 
B2 |  | no binding | 
B3 |  | no binding | 
B4 |  | no binding | 
B5 |  |  | binding result [3]: no binding
B6 | no binding |  | 
